Experiments:
VEGFR II (KDR) = VEGFR II (KDR) (Homo sapiens, UniProt P35968); assay: Inhibition of KDR kinase activity (33P-ATP, poly-(Glu4Tyr) phosphocellulose filter assay); type: biochemical; details: read-out: kinase-inhibition IC50 VEGFR II (KDR), 10 minutes at room temperature, KH = keine Hemmung = No inhibition
VEGFR I (FLT) = VEGFR I (FLT) (Homo sapiens, UniProt P17948); assay: Inhibition of FLT-1 kinase activity (33P-ATP, poly-(Glu4Tyr) phosphocellulose filter assay); type: biochemical; details: read-out: kinase-inhibition IC50 VEGFR I (FLT), 10 minutes at room temperature, KH = keine Hemmung = No inhibition

Amino acid sequences for entries named in this document (tags omitted). Residues count along the entry.
UniProt P35968, 20-1356 limits assumed: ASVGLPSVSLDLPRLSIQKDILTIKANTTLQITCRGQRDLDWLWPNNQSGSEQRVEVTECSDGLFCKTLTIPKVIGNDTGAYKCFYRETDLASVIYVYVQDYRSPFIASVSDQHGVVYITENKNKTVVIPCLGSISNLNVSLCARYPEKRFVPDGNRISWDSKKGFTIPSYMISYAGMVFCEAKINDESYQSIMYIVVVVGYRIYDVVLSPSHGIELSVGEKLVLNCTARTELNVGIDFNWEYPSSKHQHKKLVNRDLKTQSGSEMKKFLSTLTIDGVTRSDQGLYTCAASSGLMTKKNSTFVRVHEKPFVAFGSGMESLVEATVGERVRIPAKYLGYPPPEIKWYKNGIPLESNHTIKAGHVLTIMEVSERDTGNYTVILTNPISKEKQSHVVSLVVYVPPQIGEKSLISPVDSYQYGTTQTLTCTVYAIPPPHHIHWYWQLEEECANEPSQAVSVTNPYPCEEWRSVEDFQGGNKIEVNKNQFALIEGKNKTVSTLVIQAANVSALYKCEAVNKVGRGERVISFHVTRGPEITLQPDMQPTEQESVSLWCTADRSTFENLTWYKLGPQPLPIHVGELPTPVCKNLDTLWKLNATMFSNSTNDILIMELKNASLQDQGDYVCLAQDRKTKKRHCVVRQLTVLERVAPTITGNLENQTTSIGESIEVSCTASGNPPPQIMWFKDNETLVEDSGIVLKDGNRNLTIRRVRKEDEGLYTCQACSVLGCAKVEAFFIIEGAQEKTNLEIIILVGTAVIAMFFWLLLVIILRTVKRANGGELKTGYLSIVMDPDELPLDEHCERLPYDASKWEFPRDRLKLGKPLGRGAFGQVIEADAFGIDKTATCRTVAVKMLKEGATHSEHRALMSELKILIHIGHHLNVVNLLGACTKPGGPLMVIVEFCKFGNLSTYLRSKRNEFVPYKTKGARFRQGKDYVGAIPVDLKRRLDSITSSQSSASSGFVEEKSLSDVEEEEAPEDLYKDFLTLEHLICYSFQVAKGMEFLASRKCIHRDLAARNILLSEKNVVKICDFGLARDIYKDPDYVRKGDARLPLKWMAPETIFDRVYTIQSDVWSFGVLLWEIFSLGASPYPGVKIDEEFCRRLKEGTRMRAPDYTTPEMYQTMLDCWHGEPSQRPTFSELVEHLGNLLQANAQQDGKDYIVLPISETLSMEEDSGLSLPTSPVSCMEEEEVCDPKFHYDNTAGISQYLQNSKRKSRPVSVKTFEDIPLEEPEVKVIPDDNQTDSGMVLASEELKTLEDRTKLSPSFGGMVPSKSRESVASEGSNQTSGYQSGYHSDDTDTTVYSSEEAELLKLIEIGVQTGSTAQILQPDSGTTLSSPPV
UniProt P17948, 27-1338 limits assumed: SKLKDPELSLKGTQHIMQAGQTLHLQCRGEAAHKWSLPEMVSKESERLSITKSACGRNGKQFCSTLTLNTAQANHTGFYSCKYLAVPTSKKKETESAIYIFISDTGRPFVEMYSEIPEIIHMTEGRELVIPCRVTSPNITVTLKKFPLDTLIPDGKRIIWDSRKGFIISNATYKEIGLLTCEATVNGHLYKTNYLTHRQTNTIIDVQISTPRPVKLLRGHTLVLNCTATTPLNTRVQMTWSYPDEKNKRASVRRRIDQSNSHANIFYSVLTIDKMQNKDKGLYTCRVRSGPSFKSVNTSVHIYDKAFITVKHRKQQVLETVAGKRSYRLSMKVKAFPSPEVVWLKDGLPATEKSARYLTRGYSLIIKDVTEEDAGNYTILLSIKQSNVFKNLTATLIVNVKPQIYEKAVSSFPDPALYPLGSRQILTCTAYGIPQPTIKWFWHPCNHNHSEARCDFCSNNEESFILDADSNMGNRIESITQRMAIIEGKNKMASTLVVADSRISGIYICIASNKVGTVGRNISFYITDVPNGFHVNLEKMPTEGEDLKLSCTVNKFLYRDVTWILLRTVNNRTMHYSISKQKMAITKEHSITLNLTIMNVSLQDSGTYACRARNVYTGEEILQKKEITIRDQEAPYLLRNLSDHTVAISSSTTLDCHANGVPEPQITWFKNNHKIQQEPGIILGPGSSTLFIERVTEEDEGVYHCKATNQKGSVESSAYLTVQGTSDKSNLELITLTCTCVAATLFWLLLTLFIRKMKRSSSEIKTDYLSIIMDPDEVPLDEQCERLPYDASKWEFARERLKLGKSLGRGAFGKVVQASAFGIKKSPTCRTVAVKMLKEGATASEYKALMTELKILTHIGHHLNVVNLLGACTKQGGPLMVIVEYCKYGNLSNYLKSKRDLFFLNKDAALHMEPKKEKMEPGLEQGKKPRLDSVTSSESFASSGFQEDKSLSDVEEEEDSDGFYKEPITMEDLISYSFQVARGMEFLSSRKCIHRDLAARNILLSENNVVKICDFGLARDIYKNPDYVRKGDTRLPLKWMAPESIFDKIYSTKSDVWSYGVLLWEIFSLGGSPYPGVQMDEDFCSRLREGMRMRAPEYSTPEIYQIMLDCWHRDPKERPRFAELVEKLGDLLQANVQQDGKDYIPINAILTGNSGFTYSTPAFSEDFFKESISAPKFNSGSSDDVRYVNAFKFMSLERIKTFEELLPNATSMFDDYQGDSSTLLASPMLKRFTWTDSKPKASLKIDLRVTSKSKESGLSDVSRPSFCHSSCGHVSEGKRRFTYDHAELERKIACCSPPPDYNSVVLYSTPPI

SMILES | IC50 (VEGFR I (FLT)) [nM] | IC50 (VEGFR II (KDR)) [nM]
O=C(Nc1nc2ccccc2s1)c1cc(Cl)ccc1NCc1ccncc1 |  | 50
O=C(NCCc1ccncc1)c1ccccc1NCc1ccncc1 | 2000 | 3000
O=C(NCCc1ccccc1)c1ccccc1NCc1ccncc1 | 40 | 50
O=C(Nc1nc2ccccc2s1)c1ccc(F)cc1NCc1ccncc1 | 50 | 40

Continued, in another order:

IC50 (VEGFR I (FLT)) [nM] | SMILES | IC50 (VEGFR II (KDR)) [nM]
50 | O=C(NCCc1ccc(O)cc1)c1ccccc1NCc1ccncc1 | 200
1000 | O=C(NCCc1cccnc1)c1ccccc1NCc1ccncc1 | 2000
5 | O=C(NCCCCc1ccccc1)c1ccccc1NCc1ccncc1 | 20
300 | O=C(NNCc1ccccc1)c1ccccc1NCc1ccncc1 | 200
